Measured values published in US6927286B1, “Bleomycin gene cluster components and their uses” (The Regents of the University of California, priority 1999, dated 2005).

Columns and labels:
[1] = molecular target: T1, apo-BlmI (type II peptidyl carrier protein BlmI, apo-form, produced from pBS2)
T1 chain: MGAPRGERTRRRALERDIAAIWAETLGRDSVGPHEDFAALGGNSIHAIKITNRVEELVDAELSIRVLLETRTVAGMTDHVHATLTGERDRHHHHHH

[2] = molecular target: MBlmX-2 (maltose-binding protein fusion of the adenylation and PCP domains from the second module of BlmX)
[3] = molecular target: T2, TcmM (type II acyl carrier protein of tetracenomycin C biosynthesis in S. glaucescens), His-tagged at both ends, P12884
T2 chain: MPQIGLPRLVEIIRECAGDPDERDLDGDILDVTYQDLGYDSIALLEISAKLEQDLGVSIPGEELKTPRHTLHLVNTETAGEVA

B1: PptA (phosphopantetheinyl transferase from Streptomyces verticillus ATCC15003), His-tagged (protein)
chain: MIAALLPSWAVTEHAFTDAPDDPVSLLFPEEAAHVARAVPKRLHEFATVRVCARAALGRLGLPPGPLLPGRRGAPSWPDGVVGSMTHCQGFRGAAVARAADAASLGIDAEPNGPLPDGVLAMVSLPSEREWLAGLAARRPDVHWDRLLFSAKESVFKAWYPLTGLELDFDEAELAVDPDAGTFTARLLVPGPVVGGRRLDGFEGRWAAGEGLVVTAIAVAAPAGTAEESAEGAGKEATADDRTAVPHHHHHH
[1]
  in vitro phosphopantetheinylation with (^3H)-(pantetheinyl)-CoASH, SDS electrophoresis and autoradiography: PptA exhibited a robust phosphopantetheinylation activity on both BlmI and MBlmX-2
[2]
  in vitro phosphopantetheinylation with (^3H)-(pantetheinyl)-CoASH, SDS electrophoresis and autoradiography: PptA exhibited a robust phosphopantetheinylation activity on both BlmI and MBlmX-2
[3]
  in vitro phosphopantetheinylation assay, autoradiography: PptA was able to posttranslationally modified both ACP substrates
